The chains behind the UniProt entries cited, without tags or fusion partners. Where a name states a change or a piece, a line headed by the entry shows the natural chain unless it says otherwise. Residues count along the entry.
UniProt P40763, whole entry: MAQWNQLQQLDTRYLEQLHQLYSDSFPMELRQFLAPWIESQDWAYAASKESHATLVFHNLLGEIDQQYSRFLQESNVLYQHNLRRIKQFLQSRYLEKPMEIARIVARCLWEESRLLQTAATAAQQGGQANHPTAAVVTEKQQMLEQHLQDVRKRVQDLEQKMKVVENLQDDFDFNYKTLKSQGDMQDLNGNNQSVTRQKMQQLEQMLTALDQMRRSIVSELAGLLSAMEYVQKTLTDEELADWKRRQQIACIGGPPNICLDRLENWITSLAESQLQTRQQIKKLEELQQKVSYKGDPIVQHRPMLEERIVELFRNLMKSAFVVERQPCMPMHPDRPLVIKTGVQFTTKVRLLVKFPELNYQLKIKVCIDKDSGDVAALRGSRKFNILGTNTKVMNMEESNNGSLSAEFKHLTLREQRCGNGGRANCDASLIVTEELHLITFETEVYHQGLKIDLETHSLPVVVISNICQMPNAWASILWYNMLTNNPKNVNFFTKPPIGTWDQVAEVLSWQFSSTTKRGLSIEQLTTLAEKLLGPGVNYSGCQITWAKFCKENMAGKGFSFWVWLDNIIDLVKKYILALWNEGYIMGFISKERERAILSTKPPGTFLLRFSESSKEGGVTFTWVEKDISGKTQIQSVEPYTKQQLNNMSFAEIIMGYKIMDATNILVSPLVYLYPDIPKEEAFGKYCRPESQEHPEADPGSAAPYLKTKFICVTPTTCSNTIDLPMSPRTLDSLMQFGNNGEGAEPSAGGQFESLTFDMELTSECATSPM
UniProt P40763, 586-685 limits assumed: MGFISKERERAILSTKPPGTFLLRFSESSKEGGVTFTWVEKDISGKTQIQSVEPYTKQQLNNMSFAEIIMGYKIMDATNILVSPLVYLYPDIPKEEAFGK
UniProt P40763, 586-685 S636A limits assumed: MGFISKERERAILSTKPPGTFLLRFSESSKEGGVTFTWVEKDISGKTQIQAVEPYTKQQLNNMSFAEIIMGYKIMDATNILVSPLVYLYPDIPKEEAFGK
UniProt P40763, 586-685 Y640A limits assumed: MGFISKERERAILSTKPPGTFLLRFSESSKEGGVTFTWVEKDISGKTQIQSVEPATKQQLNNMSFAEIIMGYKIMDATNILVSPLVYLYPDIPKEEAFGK
UniProt P10635, whole entry: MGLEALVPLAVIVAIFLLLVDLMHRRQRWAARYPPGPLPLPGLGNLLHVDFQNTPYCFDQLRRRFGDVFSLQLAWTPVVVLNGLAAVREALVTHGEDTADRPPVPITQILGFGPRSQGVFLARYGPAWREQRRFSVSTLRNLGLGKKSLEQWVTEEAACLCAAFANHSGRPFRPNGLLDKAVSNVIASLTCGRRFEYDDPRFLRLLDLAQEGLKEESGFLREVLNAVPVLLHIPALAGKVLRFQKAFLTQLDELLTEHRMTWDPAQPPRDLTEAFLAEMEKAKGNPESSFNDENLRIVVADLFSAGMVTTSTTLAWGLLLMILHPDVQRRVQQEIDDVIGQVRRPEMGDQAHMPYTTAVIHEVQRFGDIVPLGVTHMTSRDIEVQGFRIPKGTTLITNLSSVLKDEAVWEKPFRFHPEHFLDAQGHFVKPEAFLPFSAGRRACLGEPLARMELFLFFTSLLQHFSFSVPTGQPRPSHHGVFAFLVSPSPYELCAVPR

According to publication PMC10979493:

What was measured:
[1] = Liver microsome stability, mouse
STAT3-SH2D mutant Y640A = STAT3-SH2D mutant Y640A (Homo sapiens, UniProt P40763, Y640A); assay: MST binding to STAT3-SH2 mutant Y640A
Description: (§1) STAT1 (amino acid residues 127–716), STAT2 (amino acid residues 138–702), STAT3 (amino acid residues 127–722), STAT4 (amino acid residues 133–705), STAT5B (amino acid residues 136–703) and STAT6 (amino acid residues 113–658) were cloned into the pET28A vector. STAT3-SH2 (amino acid residues 586–685) and the mutants of the STAT3-SH2 produced by site-directed mutagenesis were also cloned into the pET28A vector. All recombinant human fusion proteins were expressed in E. coli BL21 (DE3). Then, according to different induction conditions, the protein expression was induced. During the induction of the expression of STAT3-SH2 and all the mutants, STAT1, STAT2, STAT3 and STAT6, when the OD value reached about 0.6–1.0, the E. coli was transferred to 22 °C and 0.5 mM Isopropyl β-D-1-thiogalactopyranoside (IPTG) was added. For the expression of STAT4 and STAT5B when the OD value reached about 0.5–0.6, the E. coli was transferred to 30 °C for 2.5–3 h and 0.2 mM IPTG was added.
(§2) Microscale thermophoresis (MST) was conducted as previously described.[28] Binding affinities of YY002, Stattic against purified STAT3^127–722 and STAT3-SH2 protein or YY002 against STAT3-SH2 WT and mutants were measured by a Monolith NT.115 (Nanotemper Technologies). […] The samples were then loaded into premium capillaries (NanoTemper Technologies) and measured at 25 °C using 20%–40% LED power and medium MST power. […]

full-length human STAT3 = full-length human STAT3 (Homo sapiens, UniProt P40763); assay: SPR binding to STAT3
Protocol: Surface plasmon resonance (SPR) experiments were performed with a Biacore 8K instrument (Cytiva) with CM5 sensor chip (Cytiva). To test YY002 binding of STAT3 protein, serially diluted concentrations of YY002 were injected into the flow system. Experiments were conducted using the buffer: 10 mM PBS, pH7.4, 137 mM NaCl, 2.7 mM KCl, 1 mM DTT, 0.05% P20, 5% DMSO. Recombinant full-length human STAT3 (Creative Biomart, Catalog: STAT3–001H, Batch number: PSS1072207) was immobilized on the sensor chip (CM5) using the amine-coupling method according to standard protocols. The analyte was injected at the flow rate of 30 μL/min. The association time was 180 s and the dissociation time was 180 s. Since YY002 was dissolved in PBS containing 5% dimethyl sulfoxide and a solvent correction assay was performed to adjust the results. YY002 at various concentrations was injected into the flow system. The KD values were calculated with the kinetics and affinity analysis option of Biacore evaluation software.

SH2-S636A = SH2-S636A (Homo sapiens, UniProt P40763, S636A); assay: MST binding to STAT3-SH2 mutant S636A
Description: as §1, §2

[2] = Liver microsome stability, human
[3] = Tolerability in tumor-bearing mice (body weight, serum chemistry, hematology)
[4] = system: other STAT family proteins; assay: MST binding to other STAT family proteins
Description: as §1, §2

CYP2D6 = CYP2D6 (Homo sapiens, UniProt P10635); assay: CYP2D6 inhibition; conditions: safety profiling
STAT3-SH2 = STAT3-SH2 (Homo sapiens, UniProt P40763); assay: MST binding to STAT3-SH2
Description: as §1, §2

## Cn1c(C(=O)N2CCN(Cc3ccc(OCC(F)(F)F)cc3)CC2)cc2ccc(Oc3cnc(-c4nc(-c5ccc(C(F)(F)F)cc5)no4)cn3)cc21
[1]
  Liver Microsomes t1/2: > 2 h
Plasma stability, rat
  Plasma t1/2: > 2 h
STAT3-SH2D mutant Y640A
  Binding affinity compared with SH2D-WT: only modestly changed
full-length human STAT3
  Kd: 65.3 nM
SH2-S636A
  Binding affinities (nM): did not bind
[2]
  Liver Microsomes t1/2: > 2 h
[3]; 10 mg/kg, P.O.
  Counts of white blood cells, lymphocytes, monocytes and neutrophils vs control: did not have a significantly influence
  Hepatic toxicity (ALT, AST): did not induce hepatic toxicity
  Serum BUN and CREA levels vs vehicle: no significant difference
[3]; PANC-1 and MIA Paca-2 tumor models
  Tolerability (systematic toxicity, body weight): well tolerated
[4]
  Binding to other STAT family proteins: no significant binding affinities
CYP2D6
  IC50: > 25000 nM
Plasma stability, dog
  Plasma t1/2: > 2 h
STAT3-SH2
  Kd: 2.24 nM
